The structures appear in SMILES notation.

The text below walks through data of patent EP4834338A1, “PHARMACEUTICAL COMPOSITION FOR DISRUPTION OF TUMOR BLOOD VESSELS” (dated 2026).

Series [1] has as its system HUVECs (human umbilical vein endothelial cells). The series can be described thus: MTS assay (CellTiter 96 AQueous One Solution Cell Proliferation Assay), cytotoxicity according to epinephrine concentration. As to conditions: for viability of HUVECs: MTS. The procedure:
Cytotoxicity against HUVECs (human umbilical vein endothelial cells) according to the concentration of epinephrine was measured using a CellTiter 96 AQueous One Solution Cell Proliferation Assay. HUVEC cells were seeded (seeding) in a 96-well plate at a density of 5×10^3 cells/well and cultured for 24 hours. Thereafter, the cells were cultured with DMEM medium containing various concentrations of epinephrine for 24 hours. The cells were then washed twice with PBS, and 100 ? of fresh growth DMEM medium was added, followed by further incubation for 48 hours. After replacing the medium with 100 ? of fresh growth DMEM medium, 20 ? of 3-(4,5-dimethylthiazol-2-yl)-5-(3-carboxymethoxyphenyl)-2-(4-sulfophenyl)-2H-tetrazolium (MTS) was added. After an additional 2 hours of incubation, absorbance was measured at 490 nm using a BIO-RAD Model 680 microplate reader (Spark, TECAN, CA, USA).
In general terms: Tetrazolium dyes change colour on reduction, which living cells bring about.

Series [2] deals with FAS, cleaved caspase 3, and cleaved caspase 9 in HUVECs. The series can be described thus: Western blot of apoptosis markers in HUVECs. As to conditions: FIGS. 3a and 3b. On the procedure:
Western blot analysis was performed to confirm the expression of FAS, cleaved caspase-3, and cleaved caspase-9, which are activated during epinephrine-induced apoptosis of HUVECs.
HUVEC cells cultured in culture dishes were lysed with a buffer containing 50 mM Tris (pH 8.0), 150 mM NaCl, 1% Nonidet p-40, 0.5% sodium deoxycholate (SDC), 0.1% sodium dodecyl sulfate (SDS), 1× protease inhibitor cocktail. Thereafter, the lysate was cooled on ice for 30 minutes and centrifuged at 14,000 g for 10 minutes, and the supernatant was separated. Quantification was performed using a bicinchoninic acid protein assay kit (Pierce Chemical, Rockford, IL, USA), and 30 µg of the protein solution was electrophoresed on a 10% SDS-polyacrylamide gel and then transferred to a nitrocellulose membrane. After the electrophoresed membrane was reacted with blocking milk for 1 hour, primary antibodies against cleaved caspase 3, cleaved caspase 9, and FAS were reacted at room temperature for 1 hour. The membrane was washed three times at 15-minute intervals with Tris buffer containing 0.1% Tween 20, and then reacted with secondary antibodies against the primary antibodies at room temperature for 1 hour, followed by detection using a chemiluminescent reagent (Amersham Life Science, Arlington Heights, IL, USA).
A protein extracted from HUVECs was used as a positive control. The expression results of FAS, cleaved caspase 3, and cleaved caspase 9 in HUVECs according to the concentration of epinephrine are shown in FIG. 3b.

For series [3], the system named is HUVECs. The series can be described thus: DNA laddering by gel electrophoresis. Conditions: as the concentration of epinephrine increased, FIG. 4. The source says:
The characteristic DNA laddering observed during the electrophoresis procedure of Example 2 was confirmed, and the results are shown in FIG. 4. It can be seen that DNA fragmentation occurred as apoptosis of HUVECs was induced by epinephrine.

Series [4] has as its system HUVECs. As to the kind of experiment: Apoptosis detection by confocal fluorescence microscopy (Apopxin/CytoCalcein). As to conditions: epinephrine 0 to 200 µM for 24 hours, FIGS. 5a to 5e. The procedure:
Using an apoptosis detection kit (blue, green) (ab176749), apoptotic cells and healthy cells can be simultaneously monitored. […] Healthy cells can be identified using CytoCalcein Violet 450 (Ex/Em = 405/450 nm), which is a dye for labeling the cytoplasm of living cells.
Vascular endothelial cells were cultured in a slide culture chamber, and epinephrine was administered to 5×10^4 cells at various concentrations (0 to 200 µM) for 24 hours. Thereafter, the cells were washed one to two times by pipetting 100 µL of assay buffer up and down. The cells were then incubated with 200 µL of assay buffer containing Apopxin/CytoCalcein at room temperature for 30 to 60 minutes. After washing the cells twice with 100 µL of assay buffer, the buffer was replaced with 100 µL of fresh assay buffer, and the cells were transferred to the stage of a confocal microscope. After tilting the halogen lamp column backward and placing a slide on the stage, the analysis software was executed, and imaging parameters were set in the Acquire tab to XYZ mode, 1024×1024 pixels, 600 Hz, Zoom 1×, average 4, accumulation 1, and rotation 0. Thereafter, a sample was placed on the microscope and focused using fluorescence. […] After checking the image while increasing the gain and intensity values, the final focal position was readjusted by turning the dial (Z position), and the image was captured, stored, and analyzed.

Series [5] is described as follows: In vivo experiment 2: body weight decrease or death in xenografted mice. As to conditions: 5 mg of pH 8.4 5-FU, 26 mice. The source says:
The animals used in the experiment were thirty-eight 5-week-old male nude mice (Crj: BALB/c-nu/nu mice, male) produced by Orient, each having an average body weight of approximately 30 g. The mice were used after a one-week acclimation period at the research institute. Human gastric cancer cells (5×10^6 cells/100 ? (PBS)) were implanted into the dorsal subcutaneous fat layer of each nude mouse. The size of the tumors was periodically measured, and when the tumor diameter reached 1 cm, a drug administration experiment was conducted.

On to `CNC[C@H](O)c1ccc(O)c(O)c1`, for which the “viability of HUVECs” value in series [1] (100µm of 5-FU co-administered, various concentrations of epinephrine, FIG. 2b) is given as “decreased in proportion to the concentration of epinephrine”. The “effect on 5-FU-induced cell death” value in series [1] (HUVECs, 100µm of 5-FU co-administered) is on record as “synergistic effect”. In series [1] (various concentrations of epinephrine for 24 hours, FIG. 2a), the “viability of HUVECs” value was “decreased in proportion to the concentration of epinephrine”. Moreover, in series [2], the “expression level of FAS” value is listed as “increased as the concentration of epinephrine increased”, the “expression level of cleaved caspase 3” value is “increased as the concentration of epinephrine increased” and the “expression level of cleaved caspase 9” value is “increased as the concentration of epinephrine increased”. Besides, in the series on HUVECs [3], the “DNA fragmentation due to apoptosis of HUVECs” value was “increased”. In the series on HUVECs [4], the “number of apoptotic cells” value is on record as “increased in proportion to the concentration of epinephrine” and the “number of healthy cells” value was “decreased”.

On to `O=c1[nH]cc(F)c(=O)[nH]1`, for which, in series [5], the “mice that exhibited a rapid decrease in body weight or died (number)” value is given as “six” and the “mice that exhibited a rapid decrease in body weight or died (share)” value is reported as “about 23.1%”.
